Assay: Plasma radioactivity and plasma metabolites after injection in a cynomolgus monkey
Source text: Plasma radioactivity profiles have been monitored over time. […] In addition, metabolites occurring in plasma over time have been monitored (FIGS. 8 and 9) for both ligands.

Question: For `C#CCN(C)[C@H](C[18F])Cc1ccccc1` [[^18F]compound 13, N-[(2S)-1-(^18F)fluoro-3-phenylpropan-2-yl]-N-methylprop-2-yn-1-amine], which “plasma radioactivity of mother compound relative to [11C]Deprenyl” value (30 and 45 min time points) is on record?
Answer: about double

Question: And the “metabolite b relative to that observed for [11C]Deprenyl” value (30 min time point)?
Answer: only one third
